The record followed here is US20100113348A1, “PERCUTANEOUSLY ABSORBABLE PREPARATION, PROCESS FOR PRODUCTION THEREOF AND METHOD FOR PERCUTANEOUS ABSORPTION” (priority 2007, published 2010).

The data set is described as follows: Skin permeation experiment (excised rat skin on Franz diffusion cell, HPLC).

As to bovine insulin, the “accumulated permeation amount within 24 hours” value reads like this: (Control 1: bovine insulin mixed into the copolymer base material (not laminated), same method as Example 1) 0.01 μg/cm^2; (Example 1: patch with 100 μg bovine insulin layer laminated on acrylate copolymer base material, stratum corneum pretreated with 0.01 weight % trypsin, 1 hour, 37° C.) 3.2 μg/cm^2; (Example 2: same insulin patch as Example 1, no pretreatment of stratum corneum) 1.7 μg/cm^2.
